Results from patent US4256883A, “Pyridoza prostacyclin analogues and N-oxides thereof” (Research Corporation, priority 1979, dated 1981).

Assay: t1/2 in saline at 25°
Details: 25° C.

With “7,8-dihydro-6,9-pyridaza prostacyclin [XXIII]” the “t1/2 Saline (25°)” value was > 24 h.
